## Ab-14 heavy chain CDR variants: yeast mating affinities

Reference: Engelhart et al. 2022, doi:10.1038/s41597-022-01779-4. File: FLAb, binding data.

Antigen: PDVDLGDISGINAS, a 14-residue peptide of the SARS-CoV-2 spike HR2 region.

Parent scFv Ab-14: VH joined to VL by three GGGGS repeats. Changes lie in the heavy chain CDRs alone.
VH: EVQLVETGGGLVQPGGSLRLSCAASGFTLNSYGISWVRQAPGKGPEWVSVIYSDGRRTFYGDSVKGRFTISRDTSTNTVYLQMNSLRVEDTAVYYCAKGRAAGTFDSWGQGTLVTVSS
VL: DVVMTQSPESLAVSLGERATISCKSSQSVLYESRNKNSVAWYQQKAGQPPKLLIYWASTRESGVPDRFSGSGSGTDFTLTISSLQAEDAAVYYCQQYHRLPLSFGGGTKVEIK

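The starting antibody came from a phage panning campaign against this peptide. AAYL49 was designed without a model: most single CDR substitutions and a random sample of double and triple ones. The scFvs were displayed on barcoded MATa yeast, the peptide on MATalpha yeast. Pairs that bind mate more often; barcode pairs of the diploids are counted by sequencing. Each replicate has its own calibration line, from reference interactions of the BCL2 family. Mating was done three times.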

Variants are written as CDR1, CDR2 and CDR3 of the heavy chain (limits as in the source). Parent: GFTLNSYGIS, VIYSDGRRTFYGDSVK, GRAAGTFDS.
This list gathers variants with a substitution at T104 (VH, numbered from residue 1).
Affinities are written as log10 Kd with Kd in nM; a lower number is a better binder.
The mean shown is taken over the replicates in which the pair was detected.
"no signal" marks a missing value. The strain was present, yet no cells mated with the target were sequenced in any replicate, which points to weak or no binding.

For GFTLNSYGIS | VIYYDGRRTFYGDSVK | GRAAGLFDS, the assay gave no signal (0 of 3 replicates; controls 0 of 9). With GFTTNSYGIS | VIYSDGRRTFYGDSVK | GRAACNFDS the result was 3.94 (3 of 3 replicates; controls 2 of 9). For GFTLNSYGIS | VIYSDGRRQFYGDSVK | GRMAGRFDS, the assay gave no signal (0 of 3 replicates; controls 0 of 9). For GFTLNSYGIS | VIYSDLRETFYGDSVK | GRAAGGFDS, the assay gave no signal (0 of 3 replicates; controls 1 of 9). For GFTLNSYGIS | FIYSDGRRTFYGDSVK | GRAAGYFDC, the assay gave 4.70 (1 of 3 replicates; controls 4 of 9). The variant GFTLNSYGIS | VINSDGRRTFYGDSVK | GRAAGRHDS showed no signal (0 of 3 replicates; controls 0 of 9). For GFTLNSYGIS | VIYSDGRRTFYGDSVK | GRAAGCFDS, the assay gave 1.52 (3 of 3 replicates; controls 0 of 9). For GFTLNSYGIS | VIYSDSRRTFYGDSVK | GRAAGCMDS, the assay gave no signal (0 of 3 replicates; controls 0 of 9).

For GFTLNPYGIS | VIYSDGRRTFYGDSVK | GRAAGNQDS, the assay gave no signal (0 of 3 replicates; controls 0 of 9). With GFTLNSYGIS | VIYSDGRRTFYGDSIK | GRAAGWFDK the result was 2.45 (1 of 3 replicates; controls 0 of 9). For GFTLNSYGIS | VIYPDGRRTFTGDSVK | GRAAGQFDS, the assay gave 3.82 (1 of 3 replicates; controls 0 of 9). The variant GFTLNSGGIS | VIYSDGRRTSYGDSVK | GRAAGCFDS showed 4.37 (1 of 3 replicates; controls 2 of 9). For GFTLNSYGIS | VIYSDGRMTFYGVSVK | GRAAGSFDS, the assay gave no signal (0 of 3 replicates; controls 1 of 9). The variant GFTLNSYGIS | VIYSDGRRTFYGDSVK | GRCAGLFDS showed no signal (0 of 3 replicates; controls 0 of 9). For GFTLNSYGIS | VIYSDGRRTFYTDSVK | GRAFGDFDS, the assay gave no signal (0 of 3 replicates; controls 0 of 9). For LFYLNSYGIS | VIYSDGRRTFYGDSVK | GRAAGVFDS, the assay gave 4.01 (1 of 3 replicates; controls 1 of 9).

The variant GFTLNSYGIS | VIYSDGRRTFYGHSVK | GRAAGHFDS gave no signal (0 of 3 replicates; controls 0 of 9). For GFTLNSYGIS | VINEDGRRTFYGDSVK | GRAAGPFDS, the assay gave no signal (0 of 3 replicates; controls 1 of 9). The variant GFTLNSYGIS | VIYSDGRRTFVGDSVK | GRLAGQFDS gave 3.03 (3 of 3 replicates; controls 0 of 9). The variant GFTLNSYGTS | VIYSDARRTFYGDSVK | GRAAGDFDS showed 4.33 (1 of 3 replicates; controls 3 of 9). The variant GFTLNSYGIS | FIYSDGRRTFYGDSVD | GRAAGIFDS gave no signal (0 of 3 replicates; controls 1 of 9). The variant RFTLNSYGIS | VIYSDGRRTFYGDSVK | GRAAGMFDA showed no signal (0 of 3 replicates; controls 2 of 9). For GFTLNSYPIP | VIYSDGRRTFYGDSVK | GRAAGNFDS, the assay gave no signal (0 of 3 replicates; controls 0 of 9). For GSTLNSYGIS | VIYSDGRRTFYGDSVK | DRAAGKFDS, the assay gave 1.22 (3 of 3 replicates; controls 4 of 9).

The variant GFTLNSYGIL | VIASDGRRTFYGDSVK | GRAAGLFDS gave 4.95 (3 of 3 replicates; controls 4 of 9). For GFTLNSYGIS | VIYSDGRRTFYGDSVK | GRWAGPFDR, the assay gave 4.04 (1 of 3 replicates; controls 4 of 9). For KFTLNSYGIS | VIYSDGRRTLYGDSVK | GRAAGNFDS, the assay gave no signal (0 of 3 replicates; controls 1 of 9). For GFPLNSYGIS | VIYSDGRRTFYGDSVK | GRAAGHFDS, the assay gave 0.78 (3 of 3 replicates; controls 3 of 9). The variant GQKLNSYGIS | VIYSDGRRTFYGDSVK | GRAAGRFDS gave 1.70 (3 of 3 replicates; controls 0 of 9). The variant GFTLNSYGIS | VIYSDGRRTFYGDSVK | VRAAGPFDS gave no signal (0 of 3 replicates; controls 1 of 9). The variant GFTLNSYGMS | VIYSDGRRTFYGDSVK | GRAAGMFDR gave 3.83 (3 of 3 replicates; controls 3 of 9). The variant GFTLNSYGIS | VIYFDGRRTFYGDSVK | GRANGCFDS gave no signal (0 of 3 replicates; controls 0 of 9).

With GFTLNSYGIS | VIYSDGRRTFYGMSVK | GRAAGVFDY the result was 2.93 (1 of 3 replicates; controls 0 of 9). The variant GFTLNSYGIS | VIYSDGRWTFYGDSVM | GRAAGIFDS showed no signal (0 of 3 replicates; controls 1 of 9). The variant TFTLNSYGIS | VIYSDGRRTFYGVSVK | GRAAGNFDS gave no signal (0 of 3 replicates; controls 1 of 9). The variant GFTLNSYGIS | VIYSDGRRAFYGRSVK | GRAAGDFDS showed no signal (0 of 3 replicates; controls 0 of 9). With GFTLNSYGIS | VIYSDNRRAFYGDSVK | GRAAGVFDS the result was no signal (0 of 3 replicates; controls 1 of 9). The variant GFTLNSYGIS | VIYSDGRRTQYGDSVK | GRAAGGFLS showed 1.04 (3 of 3 replicates; controls 2 of 9).

Again, the first 2 entries without any signal:

For GFTLNSYGIS | VIYYDGRRTFYGDSVK | GRAAGLFDS, the assay gave no signal (0 of 3 replicates; controls 0 of 9).
For GFTLNSYGIS | VIYSDGRRQFYGDSVK | GRMAGRFDS, the assay gave no signal (0 of 3 replicates; controls 0 of 9).

For reference, the parent read 0.65 as the reference entry and 4.11 (one replicate of three) as a member of this library.
As a blank, each scFv also met three strains without target: over library AAYL49, 15% of these pairings were detected, typically at 4.06 and seldom below 2.83. The control count says in how many pairings with the empty strains this scFv gave a signal.